Sequences of proteins named here, by UniProt entry; tags and fusion partners are left off. A change or cut given only in a name is not applied to a line headed by its entry.
UniProt Q01727: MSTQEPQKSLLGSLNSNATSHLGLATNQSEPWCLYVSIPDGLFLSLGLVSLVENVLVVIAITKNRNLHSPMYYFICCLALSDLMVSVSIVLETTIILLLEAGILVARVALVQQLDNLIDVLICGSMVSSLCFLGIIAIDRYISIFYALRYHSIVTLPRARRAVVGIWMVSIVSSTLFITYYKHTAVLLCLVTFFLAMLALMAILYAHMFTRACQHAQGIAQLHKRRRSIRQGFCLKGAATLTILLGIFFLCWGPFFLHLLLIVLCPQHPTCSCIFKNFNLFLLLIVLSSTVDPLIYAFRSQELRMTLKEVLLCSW
UniProt Q64326: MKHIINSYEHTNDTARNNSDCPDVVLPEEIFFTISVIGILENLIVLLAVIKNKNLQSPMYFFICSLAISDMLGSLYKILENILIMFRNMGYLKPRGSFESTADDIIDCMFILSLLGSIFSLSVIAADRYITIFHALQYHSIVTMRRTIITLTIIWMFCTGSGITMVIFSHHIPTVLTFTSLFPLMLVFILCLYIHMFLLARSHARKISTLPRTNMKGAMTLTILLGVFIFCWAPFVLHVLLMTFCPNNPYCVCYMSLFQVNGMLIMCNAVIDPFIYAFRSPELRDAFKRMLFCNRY

According to patent US6794489B2, “Compositions and methods for treatment of sexual dysfunction” (Palatin Technologies, Inc., priority 1999, dated 2004):

Assays:
MC1-R = molecular target: T1, MC1-R (Mus musculus, UniProt Q01727); assay: Competitive binding assay with 125I-NDP-MSH, MC1 receptors; conditions: read-out: RELATIVE BINDING (Ki) MC1-R; B16-F1 mouse melanoma cells; 125I-NDP-MSH radioligand
T1 construct: B16-F1 mouse melanoma cells were used as the source of MC1 receptors; endogenous in cells; host or cells: B16-F1 mouse melanoma cells

MC2-R = molecular target: T2, MC2-R (Mus musculus, UniProt Q64326); assay: Competitive binding assay with 125I-NDP-MSH, MC2 receptors; conditions: read-out: RELATIVE BINDING (Ki) MC2-R; Y1 cells; 125I-NDP-MSH radioligand
T2 construct: Y1 cells were used as the source of MC2 receptors; endogenous in cells; host or cells: Y1 cells

ferrets = assay: Ferret emesis study; type: in vivo; conditions: animals out of six
Description: Ferrets are a recognized model for emetic studies. The vehicle for both intravenous and intranasal administration was saline. The positive control was cisplatin, known to induce vomiting in ferrets. The data is described as the number of animals out of a group of six showing signs of vomiting.

Sprague Dawley rats [1] = conditions: stated as known; cited from earlier work
[2] = test system: men with psychogenic erectile dysfunction; conditions: subcutaneous, 0.025 to 0.157 mg/kg; cited from earlier work
Sprague Dawley rats [3] = assay: Induction of penile erection by intravenous injection; conditions: rat, in vivo

Melanotan-II [reference compound]
Ki (MC1-R): 0.12 nM
Ki (MC2-R): > 1000 nM
Signs of vomiting (proportions) (ferrets; 10 μg/kg IV): 1/6
Signs of vomiting (proportions) (ferrets; 30 μg/kg IV): 4/6
Signs of vomiting (proportions) (ferrets; 100 μg/kg IN): 0/6
Signs of vomiting (proportions) (ferrets; 100 μg/kg IV): 6/6
Signs of vomiting (proportions) (ferrets; 300 μg/kg IN): 5/6
Signs of vomiting (proportions) (ferrets; 500 μg/kg IN): 6/6
Lowest dose inducing side effects (Sprague Dawley rats [1]): 300 μg/kg body weight
Transient side effects [2]: nausea, stretching and yawning, and decreased appetite
Therapeutic window (desired therapeutic effect to observed adverse effects) (Sprague Dawley rats [3]): 3-4 fold
